Results taken from publication PMC11597446, “Using the Cocrystal Approach as a Promising Drug Delivery System to Enhance the Dissolution and Bioavailability of Formononetin Using an Imidazole Coformer” (Pharmaceuticals, 2024).

Assay: Powder dissolution experiment in bio-relevant media (FaSSGF, FaSSIF)

Question: Which “concentration over time after rapid dissolution” value (FaSSGF and FaSSIF, 6 h experiments) does the source give for “formononetin-imidazole [FMN-IMD cocrystal]” here?
Answer: The value was “remained steady”.

Question: And the “solubility in test media containing PVP K30” value (FaSSGF or FaSSIF with PVP K30 (2.5 mg/mL), n = 1)?
Answer: Its value is “enhanced further”.
